# Results: patent US5021549A, “Physiologically active substances, probestin and prostatin and production thereof” (priority 1987, dated 1991)
# By UniProt entry, the sequences of proteins in these tests, tags left out.
# UniProt P28838, whole entry: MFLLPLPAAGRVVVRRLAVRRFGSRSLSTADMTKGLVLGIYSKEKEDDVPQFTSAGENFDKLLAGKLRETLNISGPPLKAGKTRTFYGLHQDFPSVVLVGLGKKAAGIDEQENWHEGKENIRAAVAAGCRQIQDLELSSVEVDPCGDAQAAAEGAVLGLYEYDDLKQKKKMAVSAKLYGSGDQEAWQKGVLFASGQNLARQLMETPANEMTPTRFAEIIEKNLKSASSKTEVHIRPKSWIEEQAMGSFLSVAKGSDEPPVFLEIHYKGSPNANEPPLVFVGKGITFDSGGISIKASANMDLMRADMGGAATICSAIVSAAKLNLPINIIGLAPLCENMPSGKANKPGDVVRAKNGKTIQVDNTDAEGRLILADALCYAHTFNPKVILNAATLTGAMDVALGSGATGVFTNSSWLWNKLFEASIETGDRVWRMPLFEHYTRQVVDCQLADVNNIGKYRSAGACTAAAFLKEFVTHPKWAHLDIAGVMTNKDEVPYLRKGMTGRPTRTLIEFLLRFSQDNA
# UniProt P15145, whole entry: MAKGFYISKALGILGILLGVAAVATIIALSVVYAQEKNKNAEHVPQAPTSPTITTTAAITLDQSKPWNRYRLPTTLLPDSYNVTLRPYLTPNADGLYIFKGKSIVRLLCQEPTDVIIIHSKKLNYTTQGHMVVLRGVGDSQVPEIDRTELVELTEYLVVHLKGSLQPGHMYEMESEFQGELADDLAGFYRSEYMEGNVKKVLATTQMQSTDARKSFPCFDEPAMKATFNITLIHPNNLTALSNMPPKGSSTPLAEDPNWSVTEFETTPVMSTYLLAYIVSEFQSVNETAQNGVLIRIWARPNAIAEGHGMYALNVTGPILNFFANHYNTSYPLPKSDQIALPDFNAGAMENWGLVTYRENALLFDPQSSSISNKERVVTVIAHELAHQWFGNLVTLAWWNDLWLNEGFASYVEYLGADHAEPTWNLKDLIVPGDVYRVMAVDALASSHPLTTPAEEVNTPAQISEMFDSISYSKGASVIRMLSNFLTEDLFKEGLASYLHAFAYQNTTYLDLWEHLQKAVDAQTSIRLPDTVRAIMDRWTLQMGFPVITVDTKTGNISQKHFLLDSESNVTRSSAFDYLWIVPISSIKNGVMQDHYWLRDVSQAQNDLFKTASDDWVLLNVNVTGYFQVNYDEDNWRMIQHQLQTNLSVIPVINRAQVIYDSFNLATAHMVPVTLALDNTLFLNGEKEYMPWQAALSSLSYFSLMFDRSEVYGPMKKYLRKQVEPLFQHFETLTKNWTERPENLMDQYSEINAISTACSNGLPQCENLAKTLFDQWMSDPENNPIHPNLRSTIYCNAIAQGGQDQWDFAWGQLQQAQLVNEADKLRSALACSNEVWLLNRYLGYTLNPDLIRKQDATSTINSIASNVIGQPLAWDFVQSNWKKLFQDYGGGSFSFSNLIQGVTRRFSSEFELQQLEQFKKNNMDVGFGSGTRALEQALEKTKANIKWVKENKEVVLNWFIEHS
# UniProt Q07075, whole entry: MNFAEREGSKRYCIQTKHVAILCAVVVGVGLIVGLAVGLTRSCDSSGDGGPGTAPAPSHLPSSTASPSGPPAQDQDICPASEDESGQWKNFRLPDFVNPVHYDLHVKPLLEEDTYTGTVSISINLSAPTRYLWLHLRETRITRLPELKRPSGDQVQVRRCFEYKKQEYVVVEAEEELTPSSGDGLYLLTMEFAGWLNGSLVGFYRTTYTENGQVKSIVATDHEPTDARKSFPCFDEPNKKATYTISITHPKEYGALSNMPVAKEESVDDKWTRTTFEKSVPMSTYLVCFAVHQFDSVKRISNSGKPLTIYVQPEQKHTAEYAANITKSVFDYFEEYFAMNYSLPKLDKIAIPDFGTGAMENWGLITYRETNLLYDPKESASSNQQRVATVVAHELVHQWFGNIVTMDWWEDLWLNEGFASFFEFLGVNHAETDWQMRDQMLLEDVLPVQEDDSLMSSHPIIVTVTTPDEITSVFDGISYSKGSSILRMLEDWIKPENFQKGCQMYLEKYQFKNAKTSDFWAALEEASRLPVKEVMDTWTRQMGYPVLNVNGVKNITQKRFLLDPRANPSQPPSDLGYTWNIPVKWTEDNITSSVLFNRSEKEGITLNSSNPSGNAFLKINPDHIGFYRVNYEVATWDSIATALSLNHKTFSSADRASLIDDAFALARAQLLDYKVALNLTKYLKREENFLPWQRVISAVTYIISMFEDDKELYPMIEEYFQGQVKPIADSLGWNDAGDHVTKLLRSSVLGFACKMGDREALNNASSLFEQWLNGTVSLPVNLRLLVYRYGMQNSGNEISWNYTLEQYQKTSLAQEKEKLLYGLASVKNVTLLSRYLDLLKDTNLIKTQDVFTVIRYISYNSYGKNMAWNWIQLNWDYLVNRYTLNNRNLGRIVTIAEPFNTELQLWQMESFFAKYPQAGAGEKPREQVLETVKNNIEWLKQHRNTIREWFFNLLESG
# UniProt Q9H4A4, whole entry: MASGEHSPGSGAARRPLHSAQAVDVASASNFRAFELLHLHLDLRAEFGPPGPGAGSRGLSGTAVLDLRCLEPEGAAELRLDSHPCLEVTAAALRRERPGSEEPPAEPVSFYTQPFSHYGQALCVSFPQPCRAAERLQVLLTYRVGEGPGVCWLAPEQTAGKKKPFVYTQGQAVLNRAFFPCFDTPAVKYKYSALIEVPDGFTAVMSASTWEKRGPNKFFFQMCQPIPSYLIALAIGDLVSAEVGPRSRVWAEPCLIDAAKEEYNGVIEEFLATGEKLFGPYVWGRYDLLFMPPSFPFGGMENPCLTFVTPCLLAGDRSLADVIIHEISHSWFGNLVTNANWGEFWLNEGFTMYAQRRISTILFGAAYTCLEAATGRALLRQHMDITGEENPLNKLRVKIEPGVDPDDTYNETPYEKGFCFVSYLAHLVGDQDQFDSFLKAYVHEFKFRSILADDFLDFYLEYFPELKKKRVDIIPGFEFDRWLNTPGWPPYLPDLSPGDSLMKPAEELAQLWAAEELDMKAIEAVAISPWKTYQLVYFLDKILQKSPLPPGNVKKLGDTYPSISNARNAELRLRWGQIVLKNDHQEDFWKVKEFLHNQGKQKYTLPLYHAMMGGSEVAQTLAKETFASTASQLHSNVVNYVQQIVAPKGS
# Experiments:
# Leucine-aminopeptidase = Leucine-aminopeptidase (Homo sapiens, UniProt P28838); assay: Inhibition of leucine-aminopeptidase
# mice = assay: Acute toxicity by intravenous injection in mice
# aminopeptidase M = aminopeptidase M (Sus scrofa, UniProt P15145); assay: Inhibition of aminopeptidase M (L-leucine-β-naphthylamide substrate); assay type: biochemical
# Aminopeptidase-A = Aminopeptidase-A (Homo sapiens, UniProt Q07075); assay: Inhibition of aminopeptidase-A
# Solubility in solvents = assay type: physicochemical; settings: water and organic solvents
# [1] = test system: antibody-forming cells in spleen; assay: Humoral antibody formation: plaque-forming cells in spleen of SRBC-immunized mice (Jerne's hemolytic plaque technique); assay type: in vivo, CDF-mice; settings: intraperitoneal injection, probestin 1000 μg to 62.5 μg/mouse
# Method: CDF-mice were immunized by intravenous injection of 10^8 sheep red blood cells (SRBC). 1000 μg/mouse, 250 μg/mouse or 62.5 μg/mouse of probestin was administered by intraperitoneal injection into the mice at the time of the immunization with SRBC (0 hour) and then totally three times, namely 24, 48 and 72 hours after the immunization. Four days after the immunization with SRBC, the number of the plaque-forming cell (PFC) (namely, the antibody-forming cells) in spleen was enumerated by the known Jerne's hemolytic plaque technique [Jerne, N.K; A. A. Nordin & C. Henry; "The agar plaque technique for recognizing antibody-producing cells in cell-bound antibodies" pp. 109-122 published by Wister Institute press, Philadelphia (1963)].
# Aminopeptidase-B = Aminopeptidase-B (Homo sapiens, UniProt Q9H4A4); assay: Inhibition of aminopeptidase-B
smiles,measurement,setting,value
CCC(C)CCC(N)C(O)C(=O)NC(CC(C)C)C(=O)N1CCCC1C(=O)N1CCCC1C(=O)O (stereo not shown),Value of IC50 against Leucine-aminopeptidase,Leucine-aminopeptidase,0.3 µg/mL
same,LD50,mice,greater than 250 mg/kg
same,Value of IC50 against Aminopeptidase M,aminopeptidase M,0.028 µg/mL
same,Value of IC50 against Aminopeptidase-A,Aminopeptidase-A,91.1 µg/mL
same,Solubility,Solubility in solvents,"Readily soluble in water, methanol and dimethyl-sulfoxide, soluble in acetone and chloroform, but insoluble in ethyl acetate and hexane"
same,Effect on number of antibody-forming cells in spleen (in words),[1],increased the number of the antibody-forming cells in spleen of the mice substantially as much as probestin
same,Value of IC50 against Aminopeptidase-B,Aminopeptidase-B,60.0 µg/mL
